Experimental data reported in US20060211606A1, “Peptides” (priority 2005, published 2006).

Test system: CA1 hippocampal neurones
Experiment: Gerbil model of brain ischemia, intact CA1 hippocampal neurones
Assay type: in vivo, Mongolian gerbils
Description: Other experiments were carried out using a Gerbil model of brain ischemia. To assess neuroprotection, confocal microscopy was carried out on the brain after administration of the stabilised peptide or the IGF-I receptor binding domain.
In the gerbil brain, bilateral ligation of the common carotid arteries invariably produces specific hippocampal lesions: in the CA1 region, pyramidal neurones start to die 3-4 days after ischemia.
Male Mongolian gerbils weighing 50-60 g were used. The ischemic insult was performed by 5 min. ligation of the common carotid arteries under halotane in N2O:O2 (70:30) anaesthesia in strictly controlled normothermic conditions as previously described (Domańiska-Janik et al., 2004). The cerebral blood flow was continuously monitored by laser Doppler flowmetry (Muro, Inc.). A group of animals received stabilised peptide or IGF-1 (1 μg/μl in PBS) by injection at a dose of 25 μg directly to the left carotid artery immediately upon the reperfusion. Sham operated animals were injected with the same dose of the peptide.
Usually, 10-15 minutes after the procedure, treated animals were standing up on their legs and behaving as untreated ones. The animals were allowed a recovery period of one week, then were perfused with ice-cold 4% paraformaldehyde in PBS under pentobarbital anaesthesia. The histological evaluation was performed on paraffin-embedded and fixed, 10 mm-thick sections stained by hematoxylline/eosine. The extent of cell damage in the CA1 hippocampal region was quantified, under a Zeiss Axioscop 2, as the mean number of the persisted, intact neurons in the coronal sections. At least three defined 300 μm fields of the CA1 region were captured using a MC 10095 camera (Carl Zeiss Jena GmbH) and counted in a computer-assisted image analysis system (KS 300, Carl Zeiss Jena GmbH).

In the case of “stabilised peptide: SEQ ID NO: 15 with D-Arginine at positions 14 and 15, N-terminus attached to PEG (Jeffamine) via succinic acid bridge, amidated at C-terminus (YQPPSTNKNTKSQRRKGSTFEEHK; D-Arg 14,15; N-terminal PEG via succinate; C-amide)”, the “neurones on contralateral side as % of non-operated control value” (25 μg into left carotid artery, contralateral side) is reported as 54%, the “number of intact neurones in CA1 region, contralateral side” value (25 μg into left carotid artery, contralateral side, mean±SD) is reported as 65.8±30 neurones per 300 μm length and the “neurones on injected side as % of non-operated control value” (25 μg into left carotid artery, injected side) is reported as 74.5%. The “number of intact neurones in CA1 region, injected side” value (single bolus 25 μg into left carotid artery immediately after reperfusion, one week, mean±SD) was 83.2±25 neurones per 300 μm length.
